The results in this text go back to patent US20170137504A1 (TERACLON IDF S L, published 2017).

The chains behind the UniProt entries cited, without tags or fusion partners. A line that says so, or that is headed by a name, gives the form on record, which may keep a tag or linker.
UniProt P15692, other isoform, or with tags, fused parts or gaps limits assumed: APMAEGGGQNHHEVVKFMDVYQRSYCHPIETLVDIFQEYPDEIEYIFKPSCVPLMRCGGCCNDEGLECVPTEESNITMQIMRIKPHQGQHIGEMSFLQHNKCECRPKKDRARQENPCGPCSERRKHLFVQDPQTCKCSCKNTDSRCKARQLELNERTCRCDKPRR

The test addresses VEGF (4 ng/mL, added in the in vitro angiogenesis assay) (UniProt P15692-4 27-191, limits assumed). Briefly: cell-based or functional assay.

B1: Reference antibody (Genentech/Roche), Ranibizumab (Fab, V domains shown)
VH: EVQLVESGGGLVQPGGSLRLSCAASGYDFTHYGMNWVRQAPGKGLEWVGWINTYTGEPTYAADFKRRFTFSLDTSKSTAYLQMNSLRAEDTAVYYCAKYPYYYGTSHWYFDVWGQGTLVTVSS
VL: DIQLTQSPSSLSASVGDRVTITCSASQDISNYLNWYQQKPGKAPKVLIYFTSSLHSGVPSRFSGSGSGTDFTLTISSLQPEDFATYYCQQYSTVPWTFGQGTKVEIKR
As for B1, the “IC50, average value (in vitro angiogenesis, HUVEC/NHDF co-culture)” value was 47.6 µg/mL; the “IC50, branching points (in vitro angiogenesis, HUVEC/NHDF co-culture)” value amounted to 37.5 µg/mL; the “IC50, length of the tubes (in vitro angiogenesis, HUVEC/NHDF co-culture)” value turned out to be 57.6 µg/mL.
